Experimental data published in US20180222985A1, “ANTIBODIES AGAINST HUMAN CSF-1R FOR USE IN INDUCING LYMPHOCYTOSIS IN LYMPHOMAS OR LEUKEMIAS” (Hoffmann-La Roche Inc., priority 2015, published 2018).

B1: hMab 2F11-e7 (antibody, IgG1, V domains shown)
VH: QVQLVQSGAEVKKPGASVKVSCKASGYTFTSYDISWVRQAPGQGLEWMGVIWTDGGTNYAQKLQGRVTMTTDTSTSTAYMELRSLRSDDTAVYYCARDQRLYFDVWGQGTTVTVSS
VL: DIQMTQSPSSLSASVGDRVTITCRASEDVNTYVSWYQQKPGKAPKLLIYAASNRYTGVPSRFSGSGSGTDFTLTISSLQPEDFATYYCQQSFSYPTFGQGTKLEIK
B2: hMab 2F11-f12 (antibody, V domains shown)
VH: QVQLVQSGAEVKKPGSSVKVSCKASGFSLTTYDISWVRQAPGQGLEWMGVIWTDGGTNYNSPFMSRVTITKDESTSTAYMELSSLRSEDTAVYYCVRDQRLYFDVWGQGTTVTVSS
VL: B1 VL with A50G, N53S, R54L, Y55Q, T56S, Q89G
B3: Mab 2F11 (antibody, V domains shown)
VH: QVQLKESGPGLVAPSQSLSITCTVSGFSLTTYDISWIRQSPGKGLEWLGVIWTDGGTNYNSPFMSRLSIRKDNSKSQVFLKMNRLQTDDTAIYYCVRDQRLYFDVWGAGTTVTVSS
VL: NIVMTQSPKSMSMSVGERVTLNCKASEDVNTYVSWYQQQPEQSPKLLIYGASNRYTGVPDRFTGGGSTTDFTLTISSVQAEDLADYFCGQSFSYPTFGTGTKLEIK
B4: Mab 2E10 (antibody, V domains shown)
VH: QVQLKESGPGLVAPSKSLSITCTVSGSSLDSFDISWIRQSPGKGLEWLGVIWTGGGTNYNSGFMSRLRITKDNSKSQVLLKMNSLQSDDTAIYYCVRDPRLYFDVWGAGTTVTVSS
VL: B3 VL with N22S, N30V, Q39K, E41D, G65S, T68A, F87Y, S91T

Experiments:
Assay in all cases: cell-based or functional assay
[1] = target: T1, human wildtype CSF-1R (wt CSF-1R) (human, UniProt P07333 20-972)
[2] = target: T1, human wildtype CSF-1R (wt CSF-1R); remark: listed apart in the source
[3] = target: T1, human wildtype CSF-1R (wt CSF-1R); remark: listed apart in the source
[4] = target: T1, human wildtype CSF-1R (wt CSF-1R); remark: listed apart in the source

Molecule	IC50 of inhibition of survival of human monocytes cultured with 150 ng/ml huCSF-1 (CellTiterGlo) [2] [µg/mL]	IC50 CSF-1R Phosphorylation [3] [µg/mL]	also measured
Anti CSF-1R SC 2-4A5 (Santa Cruz Biotechnology, US) (antibody)			IC50 CSF-1R Phosphorylation [1]: 1.01 µg/mL
B1	0.04		
B2	0.09		
B3		0.219	IC50 of inhibition of survival of human monocytes cultured with 150 ng/ml huCSF-1 (CellTiterGlo) [4]: 0.08 µg/mL
B4		0.752	

Changes are numbered by the printed parent chain. Where two headings read alike, the source gives them in different places.
